Laboratory results as given in article PMC5864910, “Mutacin 1140 Lantibiotic Variants Are Efficacious Against Clostridium difficile Infection” (Frontiers in Microbiology, 2018).

Protein sequences, listed by entry. Tags and fused reporters are not part of them. Lines headed by an entry give the natural chain unless they say otherwise; changes in a name come on top. Residues count along the entry.
UniProt P41145: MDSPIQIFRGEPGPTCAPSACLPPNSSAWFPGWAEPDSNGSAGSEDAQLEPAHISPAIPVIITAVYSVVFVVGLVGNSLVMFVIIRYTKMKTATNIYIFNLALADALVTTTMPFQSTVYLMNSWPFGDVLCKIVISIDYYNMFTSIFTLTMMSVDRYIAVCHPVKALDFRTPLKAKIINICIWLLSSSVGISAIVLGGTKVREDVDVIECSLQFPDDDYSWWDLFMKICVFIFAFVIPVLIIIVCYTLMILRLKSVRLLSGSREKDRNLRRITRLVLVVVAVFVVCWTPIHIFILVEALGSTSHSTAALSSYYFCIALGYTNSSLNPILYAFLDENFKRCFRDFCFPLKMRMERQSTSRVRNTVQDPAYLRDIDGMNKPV
UniProt P34972, whole entry: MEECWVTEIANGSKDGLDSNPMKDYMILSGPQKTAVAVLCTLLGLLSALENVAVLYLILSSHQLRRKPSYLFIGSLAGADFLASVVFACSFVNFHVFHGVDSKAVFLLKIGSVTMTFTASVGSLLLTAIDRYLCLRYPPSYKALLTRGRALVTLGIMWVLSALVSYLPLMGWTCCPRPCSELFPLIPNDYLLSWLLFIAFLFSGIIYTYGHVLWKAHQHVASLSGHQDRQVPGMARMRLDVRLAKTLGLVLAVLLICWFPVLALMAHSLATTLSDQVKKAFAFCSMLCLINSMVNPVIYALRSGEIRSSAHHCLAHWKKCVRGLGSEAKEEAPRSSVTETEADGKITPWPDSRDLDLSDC
UniProt P23975, whole entry: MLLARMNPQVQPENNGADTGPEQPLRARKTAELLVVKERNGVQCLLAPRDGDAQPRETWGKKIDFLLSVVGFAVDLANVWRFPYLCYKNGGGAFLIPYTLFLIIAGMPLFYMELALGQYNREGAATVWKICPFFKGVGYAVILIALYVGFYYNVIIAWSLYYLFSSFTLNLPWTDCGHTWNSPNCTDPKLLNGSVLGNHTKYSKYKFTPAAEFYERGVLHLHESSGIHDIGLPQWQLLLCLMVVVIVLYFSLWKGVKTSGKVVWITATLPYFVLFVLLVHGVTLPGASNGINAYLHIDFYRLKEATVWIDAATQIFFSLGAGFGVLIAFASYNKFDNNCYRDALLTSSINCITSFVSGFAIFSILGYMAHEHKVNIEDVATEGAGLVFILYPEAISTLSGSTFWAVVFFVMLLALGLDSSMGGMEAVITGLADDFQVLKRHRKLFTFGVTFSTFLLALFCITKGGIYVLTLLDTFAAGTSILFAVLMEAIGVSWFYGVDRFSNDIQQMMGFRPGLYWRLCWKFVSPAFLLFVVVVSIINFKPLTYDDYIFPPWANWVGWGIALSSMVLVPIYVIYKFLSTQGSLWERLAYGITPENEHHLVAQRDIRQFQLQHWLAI
UniProt Q01959, whole entry: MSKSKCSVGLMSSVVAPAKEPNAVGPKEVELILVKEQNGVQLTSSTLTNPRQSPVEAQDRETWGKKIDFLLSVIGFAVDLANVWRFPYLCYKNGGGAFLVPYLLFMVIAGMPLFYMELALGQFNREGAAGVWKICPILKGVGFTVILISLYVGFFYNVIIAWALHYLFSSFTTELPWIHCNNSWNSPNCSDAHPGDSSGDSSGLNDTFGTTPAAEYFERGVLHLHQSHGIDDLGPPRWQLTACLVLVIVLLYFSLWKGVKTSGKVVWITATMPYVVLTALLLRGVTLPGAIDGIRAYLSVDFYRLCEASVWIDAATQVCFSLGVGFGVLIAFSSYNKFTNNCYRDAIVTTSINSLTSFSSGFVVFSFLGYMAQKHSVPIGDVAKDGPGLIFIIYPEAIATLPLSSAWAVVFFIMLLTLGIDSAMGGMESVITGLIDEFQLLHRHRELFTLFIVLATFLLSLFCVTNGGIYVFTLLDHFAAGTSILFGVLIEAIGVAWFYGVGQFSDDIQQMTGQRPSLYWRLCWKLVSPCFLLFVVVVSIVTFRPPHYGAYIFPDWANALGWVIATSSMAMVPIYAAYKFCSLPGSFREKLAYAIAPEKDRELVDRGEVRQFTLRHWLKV
UniProt P43681, 29-627 limits assumed: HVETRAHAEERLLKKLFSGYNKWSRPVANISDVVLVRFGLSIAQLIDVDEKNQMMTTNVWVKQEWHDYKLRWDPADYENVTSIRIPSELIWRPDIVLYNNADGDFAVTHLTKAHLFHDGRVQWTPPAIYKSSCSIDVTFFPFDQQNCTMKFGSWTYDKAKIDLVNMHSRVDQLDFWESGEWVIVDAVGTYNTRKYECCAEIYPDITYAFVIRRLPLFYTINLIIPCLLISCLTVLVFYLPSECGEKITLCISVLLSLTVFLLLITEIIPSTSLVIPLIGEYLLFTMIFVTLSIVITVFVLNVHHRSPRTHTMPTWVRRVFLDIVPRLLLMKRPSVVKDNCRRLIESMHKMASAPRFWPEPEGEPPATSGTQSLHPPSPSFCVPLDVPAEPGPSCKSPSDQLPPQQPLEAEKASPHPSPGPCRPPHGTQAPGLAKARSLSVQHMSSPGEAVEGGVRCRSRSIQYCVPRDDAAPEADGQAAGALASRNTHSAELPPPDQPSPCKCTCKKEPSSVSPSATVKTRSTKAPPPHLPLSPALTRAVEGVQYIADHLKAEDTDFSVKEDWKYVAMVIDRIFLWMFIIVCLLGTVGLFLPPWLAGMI
UniProt P20309, whole entry: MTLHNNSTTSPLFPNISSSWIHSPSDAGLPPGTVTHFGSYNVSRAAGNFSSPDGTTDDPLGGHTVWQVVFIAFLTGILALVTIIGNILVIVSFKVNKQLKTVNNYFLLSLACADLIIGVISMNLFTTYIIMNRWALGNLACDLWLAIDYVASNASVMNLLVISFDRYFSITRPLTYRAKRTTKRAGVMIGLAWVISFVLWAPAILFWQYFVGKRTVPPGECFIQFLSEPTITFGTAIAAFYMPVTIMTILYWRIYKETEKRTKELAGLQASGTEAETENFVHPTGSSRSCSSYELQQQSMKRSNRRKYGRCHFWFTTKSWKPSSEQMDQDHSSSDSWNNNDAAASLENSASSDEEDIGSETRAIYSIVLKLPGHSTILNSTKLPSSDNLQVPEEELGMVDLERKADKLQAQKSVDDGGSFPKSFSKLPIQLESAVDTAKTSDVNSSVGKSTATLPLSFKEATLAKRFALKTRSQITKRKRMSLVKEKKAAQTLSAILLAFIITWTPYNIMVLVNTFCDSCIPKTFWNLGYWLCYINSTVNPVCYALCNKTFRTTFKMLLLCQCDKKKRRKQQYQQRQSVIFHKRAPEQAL
UniProt P35372, whole entry: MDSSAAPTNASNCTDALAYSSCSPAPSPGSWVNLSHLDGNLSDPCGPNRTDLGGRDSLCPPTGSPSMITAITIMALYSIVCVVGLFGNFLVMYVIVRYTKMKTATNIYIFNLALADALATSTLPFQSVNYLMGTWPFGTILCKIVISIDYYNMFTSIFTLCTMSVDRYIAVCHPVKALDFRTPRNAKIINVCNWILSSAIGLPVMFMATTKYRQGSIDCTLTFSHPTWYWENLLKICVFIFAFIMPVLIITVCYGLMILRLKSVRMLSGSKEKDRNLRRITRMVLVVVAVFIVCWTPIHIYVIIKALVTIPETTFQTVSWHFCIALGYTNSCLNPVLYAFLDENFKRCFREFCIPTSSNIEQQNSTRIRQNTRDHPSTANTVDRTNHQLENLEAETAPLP
UniProt P31645, whole entry: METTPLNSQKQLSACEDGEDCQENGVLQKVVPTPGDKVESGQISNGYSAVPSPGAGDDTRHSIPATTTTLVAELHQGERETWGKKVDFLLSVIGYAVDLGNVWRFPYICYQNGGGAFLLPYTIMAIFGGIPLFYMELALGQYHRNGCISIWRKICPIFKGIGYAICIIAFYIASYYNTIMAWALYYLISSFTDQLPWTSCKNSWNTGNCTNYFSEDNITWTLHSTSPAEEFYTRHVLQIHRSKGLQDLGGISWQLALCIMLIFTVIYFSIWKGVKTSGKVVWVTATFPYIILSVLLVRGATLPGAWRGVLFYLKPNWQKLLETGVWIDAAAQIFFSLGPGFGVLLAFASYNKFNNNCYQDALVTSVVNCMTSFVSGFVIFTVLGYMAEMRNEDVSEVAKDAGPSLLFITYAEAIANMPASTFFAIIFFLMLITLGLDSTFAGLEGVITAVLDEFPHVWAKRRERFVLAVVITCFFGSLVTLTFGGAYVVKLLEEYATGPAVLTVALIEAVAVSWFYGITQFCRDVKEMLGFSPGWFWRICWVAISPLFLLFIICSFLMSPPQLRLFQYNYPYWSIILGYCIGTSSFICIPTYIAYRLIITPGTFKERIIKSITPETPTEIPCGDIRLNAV
UniProt P41595, whole entry: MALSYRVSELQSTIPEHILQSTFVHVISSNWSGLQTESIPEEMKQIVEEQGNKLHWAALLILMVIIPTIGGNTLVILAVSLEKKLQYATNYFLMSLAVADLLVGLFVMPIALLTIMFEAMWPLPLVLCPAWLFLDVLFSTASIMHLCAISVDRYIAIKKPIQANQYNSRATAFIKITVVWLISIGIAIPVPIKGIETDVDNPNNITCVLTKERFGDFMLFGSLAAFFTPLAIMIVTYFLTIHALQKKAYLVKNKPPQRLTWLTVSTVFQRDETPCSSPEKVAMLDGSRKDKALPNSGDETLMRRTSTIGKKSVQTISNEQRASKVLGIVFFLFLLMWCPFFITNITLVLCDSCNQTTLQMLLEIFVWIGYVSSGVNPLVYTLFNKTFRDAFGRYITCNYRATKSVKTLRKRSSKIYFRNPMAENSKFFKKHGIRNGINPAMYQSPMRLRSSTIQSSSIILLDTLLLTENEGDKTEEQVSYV
UniProt P23219, 24-599: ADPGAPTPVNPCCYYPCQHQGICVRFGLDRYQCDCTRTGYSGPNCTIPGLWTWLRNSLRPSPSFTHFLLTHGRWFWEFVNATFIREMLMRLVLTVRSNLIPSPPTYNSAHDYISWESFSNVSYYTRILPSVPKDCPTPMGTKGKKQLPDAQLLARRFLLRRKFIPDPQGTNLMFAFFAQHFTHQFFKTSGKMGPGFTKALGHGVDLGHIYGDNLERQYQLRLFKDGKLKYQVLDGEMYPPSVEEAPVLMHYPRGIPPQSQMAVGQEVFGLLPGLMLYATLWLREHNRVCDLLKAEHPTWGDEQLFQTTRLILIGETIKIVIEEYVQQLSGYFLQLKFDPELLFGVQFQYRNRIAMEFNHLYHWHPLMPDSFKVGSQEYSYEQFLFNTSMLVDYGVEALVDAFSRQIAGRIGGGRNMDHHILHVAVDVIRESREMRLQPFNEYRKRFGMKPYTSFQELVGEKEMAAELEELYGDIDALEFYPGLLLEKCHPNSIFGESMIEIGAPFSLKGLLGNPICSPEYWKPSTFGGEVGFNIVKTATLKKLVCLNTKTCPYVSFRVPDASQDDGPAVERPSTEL
UniProt P22303, 32-614: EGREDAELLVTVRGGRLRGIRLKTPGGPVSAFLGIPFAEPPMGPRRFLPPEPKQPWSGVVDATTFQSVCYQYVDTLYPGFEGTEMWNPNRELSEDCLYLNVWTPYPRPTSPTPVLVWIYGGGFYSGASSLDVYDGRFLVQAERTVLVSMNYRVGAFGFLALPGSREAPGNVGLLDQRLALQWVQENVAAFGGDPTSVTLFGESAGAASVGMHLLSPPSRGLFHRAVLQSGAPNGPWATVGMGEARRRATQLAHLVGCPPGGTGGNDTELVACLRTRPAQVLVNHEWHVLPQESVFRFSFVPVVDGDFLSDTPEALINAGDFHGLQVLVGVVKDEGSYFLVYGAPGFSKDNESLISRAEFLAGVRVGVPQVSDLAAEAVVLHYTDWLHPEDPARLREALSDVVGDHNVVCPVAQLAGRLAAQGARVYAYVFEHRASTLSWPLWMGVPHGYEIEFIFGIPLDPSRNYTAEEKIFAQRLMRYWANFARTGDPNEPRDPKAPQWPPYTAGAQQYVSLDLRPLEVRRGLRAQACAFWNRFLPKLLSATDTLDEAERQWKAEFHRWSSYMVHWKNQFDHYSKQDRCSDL
UniProt P35367, whole entry: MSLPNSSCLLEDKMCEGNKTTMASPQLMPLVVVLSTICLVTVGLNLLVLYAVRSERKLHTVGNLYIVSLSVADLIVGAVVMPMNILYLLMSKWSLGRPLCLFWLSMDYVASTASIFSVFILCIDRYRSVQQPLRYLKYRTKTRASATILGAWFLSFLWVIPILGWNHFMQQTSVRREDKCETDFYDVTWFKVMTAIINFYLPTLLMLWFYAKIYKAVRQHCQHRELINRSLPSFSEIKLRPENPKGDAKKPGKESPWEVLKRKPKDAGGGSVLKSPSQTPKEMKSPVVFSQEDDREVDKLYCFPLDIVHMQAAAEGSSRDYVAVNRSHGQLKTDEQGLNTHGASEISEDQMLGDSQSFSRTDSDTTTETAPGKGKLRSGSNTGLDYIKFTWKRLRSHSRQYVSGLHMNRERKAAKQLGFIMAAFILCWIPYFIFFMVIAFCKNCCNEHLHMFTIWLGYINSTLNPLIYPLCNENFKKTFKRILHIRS

What was measured:
kappa (KOP) = kappa (KOP) (Homo sapiens, UniProt P41145)
delta2 DOP = delta2 DOP (Homo sapiens, UniProt P41143)
CB2 = CB2 (Homo sapiens, UniProt P34972)
NT = NT (Homo sapiens, UniProt P23975)
Dopamine = Dopamine (Homo sapiens, UniProt Q01959)
alpha1A = target: T1, alpha1A (Homo sapiens, UniProt P35348)
T1 sequence (P35348 1-466): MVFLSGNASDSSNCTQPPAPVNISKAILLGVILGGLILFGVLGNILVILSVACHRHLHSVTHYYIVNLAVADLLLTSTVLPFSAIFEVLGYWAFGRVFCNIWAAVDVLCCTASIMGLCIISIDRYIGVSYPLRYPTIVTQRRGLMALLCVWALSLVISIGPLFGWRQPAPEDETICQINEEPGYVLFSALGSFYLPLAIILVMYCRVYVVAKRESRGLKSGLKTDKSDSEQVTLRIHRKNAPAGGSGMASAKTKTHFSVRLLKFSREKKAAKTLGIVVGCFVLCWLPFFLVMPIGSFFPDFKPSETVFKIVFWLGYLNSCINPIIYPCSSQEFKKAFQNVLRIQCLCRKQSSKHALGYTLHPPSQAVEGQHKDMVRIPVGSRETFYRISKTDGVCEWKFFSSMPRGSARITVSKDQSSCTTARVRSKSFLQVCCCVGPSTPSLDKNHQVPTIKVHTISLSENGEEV

N- neuronal a4b2 = N- neuronal a4b2 (Homo sapiens, UniProt P17787+P43681)
H2 = H2 (Homo sapiens, UniProt P25021)
AR = target: T2, AR (Homo sapiens, UniProt P10275, T878A)
T2 sequence (P10275 1-920 T878A): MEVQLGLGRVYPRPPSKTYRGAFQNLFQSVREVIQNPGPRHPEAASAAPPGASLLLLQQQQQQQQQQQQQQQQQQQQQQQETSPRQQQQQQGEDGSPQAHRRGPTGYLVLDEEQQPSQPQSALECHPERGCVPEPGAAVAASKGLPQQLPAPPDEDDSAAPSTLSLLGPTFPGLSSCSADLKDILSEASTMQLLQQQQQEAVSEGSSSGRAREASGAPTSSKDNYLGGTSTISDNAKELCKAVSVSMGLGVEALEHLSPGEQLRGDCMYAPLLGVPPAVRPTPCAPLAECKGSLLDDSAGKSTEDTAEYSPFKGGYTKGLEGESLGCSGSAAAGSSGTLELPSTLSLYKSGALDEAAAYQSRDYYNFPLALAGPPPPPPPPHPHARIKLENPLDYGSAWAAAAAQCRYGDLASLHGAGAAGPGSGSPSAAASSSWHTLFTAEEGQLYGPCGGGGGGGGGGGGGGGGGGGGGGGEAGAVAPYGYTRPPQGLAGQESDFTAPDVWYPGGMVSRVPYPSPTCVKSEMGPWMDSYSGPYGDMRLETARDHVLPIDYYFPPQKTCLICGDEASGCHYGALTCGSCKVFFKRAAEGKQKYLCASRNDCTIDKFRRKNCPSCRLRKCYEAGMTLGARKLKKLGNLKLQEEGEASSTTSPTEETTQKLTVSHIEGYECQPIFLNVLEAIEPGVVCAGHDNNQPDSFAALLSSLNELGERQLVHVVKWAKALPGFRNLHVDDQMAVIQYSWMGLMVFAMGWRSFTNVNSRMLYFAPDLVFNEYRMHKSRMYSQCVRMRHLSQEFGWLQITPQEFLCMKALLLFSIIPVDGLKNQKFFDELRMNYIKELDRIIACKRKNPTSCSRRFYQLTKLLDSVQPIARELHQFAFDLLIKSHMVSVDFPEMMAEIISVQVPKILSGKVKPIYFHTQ

M3 = M3 (Homo sapiens, UniProt P20309)
Mu (MOP) = Mu (MOP) (Homo sapiens, UniProt P35372)
5-HT Transporter = 5-HT Transporter (Homo sapiens, UniProt P31645)
5-HT (1B) = 5-HT (1B) (Rattus norvegicus, UniProt P28564)
PDE3A = PDE3A (Homo sapiens, UniProt Q14432)
5-HT (2B) = 5-HT (2B) (Homo sapiens, UniProt P41595)
CB1 = CB1 (Homo sapiens, UniProt P21554)
hERG = hERG (Homo sapiens, UniProt Q12809)
PDE4D2 = PDE4D2 (Homo sapiens, UniProt Q08499)
cyclooxygenase Cox-1 = cyclooxygenase Cox-1 (Homo sapiens, UniProt P23219)
ACHE = ACHE (Homo sapiens, UniProt P22303)
H1 = H1 (Homo sapiens, UniProt P35367)
5-HT (2A) = 5-HT (2A) (Homo sapiens, UniProt P28223)
V1a = V1a (Homo sapiens, UniProt P37288)
kinase (CTK) = kinase (CTK) (Homo sapiens, UniProt P06239)
D1 = D1 (Homo sapiens, UniProt P21728)

SMILES	Cerep SafetyScreen 44 % Inhibition kappa (KOP) (kappa (KOP)) [%]	Cerep SafetyScreen 44 % Inhibition delta2 (DOP) (delta2 DOP) [%]	Cerep SafetyScreen 44 % Inhibition CB2 (CB2) [%]	Cerep SafetyScreen 44 % Inhibition NT (NT) [%]	Cerep SafetyScreen 44 % Inhibition Dopamine (Dopamine) [%]	Cerep SafetyScreen 44 % Inhibition alpha1A (alpha1A) [%]	Cerep SafetyScreen 44 % Inhibition N- neuronal a4b2 (N- neuronal a4b2) [%]	Cerep SafetyScreen 44 % Inhibition H2 (H2) [%]	Cerep SafetyScreen 44 % Inhibition AR (AR) [%]	Cerep SafetyScreen 44 % Inhibition M3 (M3) [%]	Cerep SafetyScreen 44 % Inhibition Mu (MOP) (Mu (MOP)) [%]	Cerep SafetyScreen 44 % Inhibition 5-HT Transporter (5-HT Transporter) [%]	Cerep SafetyScreen 44 % Inhibition 5-HT (1B) (5-HT (1B)) [%]	Cerep SafetyScreen 44 % Inhibition PDE3A (PDE3A) [%]	Cerep SafetyScreen 44 % Inhibition 5-HT (2B) (5-HT (2B)) [%]	Cerep SafetyScreen 44 % Inhibition CB1 (CB1) [%]	Cerep SafetyScreen 44 % Inhibition hERG (hERG) [%]	Cerep SafetyScreen 44 % Inhibition PDE4D2 (PDE4D2) [%]	Cerep SafetyScreen 44 % Inhibition COX1 Enzyme (cyclooxygenase Cox-1) [%]	Cerep SafetyScreen 44 % Inhibition Lck Kinase (kinase (CTK)) [%]	other results
C=C1NC(=O)[C@H](Cc2c[nH]c3ccccc23)NC(=O)[C@H](NC(=O)[C@H](CCCCN)NC(=O)[C@@H](N)Cc2ccccc2)CSC[C@@H](C(=O)N[C@H]2C(=O)N3CCC[C@H]3C(=O)NCC(=O)N[C@H](C(=O)N[C@@H](C)C(=O)N[C@@H](CCCNC(=N)N)C(=O)N/C(=C\C)C(=O)NCC(=O)N[C@@H]3CSC[C@@H]4NC(=O)[C@H](Cc5ccc(O)cc5)NC(=O)[C@@H](CS/C=C\NC4=O)NC(=O)[C@H](CC(N)=O)NC(=O)[C@H](Cc4ccc(O)cc4)NC3=O)CS[C@H]2C)NC(=O)[C@H](CC(C)C)NC1=O [F17Y]	20	54	1	12	10	-5	0	4	-7	3	13	-9	-5	9	-20	-1	9	4	-23	9	Cerep SafetyScreen 44 % Inhibition ACHE (ACHE): -4%; Cerep SafetyScreen 44 % Inhibition H1 (H1): -5%; Cerep SafetyScreen 44 % Inhibition 5-HT (2A) (5-HT (2A)): 2%; Cerep SafetyScreen 44 % Inhibition V1a (V1a): 18%; Cerep SafetyScreen 44 % Inhibition D1 (D1): 5%
C=C1NC(=O)[C@H](Cc2c[nH]c3ccccc23)NC(=O)[C@H](NC(=O)[C@H](CCCCN)NC(=O)[C@@H](N)Cc2ccccc2)CSC[C@@H](C(=O)N[C@H]2C(=O)N3CCC[C@H]3C(=O)NCC(=O)N[C@H](C(=O)N[C@@H](C)C(=O)N[C@@H](CCCNC(=N)N)C(=O)N/C(=C\C)C(=O)NCC(=O)N[C@@H]3CSC[C@@H]4NC(=O)[C@H](Cc5ccc(O)cc5)NC(=O)[C@@H](CS/C=C\NC4=O)NC(=O)[C@H](CC(N)=O)NC(=O)[C@H](Cc4ccccc4)NC3=O)CS[C@H]2C)NC(=O)[C@H](C)NC1=O [L6A]	–	14	–	–	–	–	–	–	–	–	–	–	–	–	–	–	7	–	-15	12	–
C=C1NC(=O)[C@H](Cc2c[nH]c3ccccc23)NC(=O)[C@H](NC(=O)[C@H](CCCCN)NC(=O)[C@@H](N)Cc2ccccc2)CSC[C@@H](C(=O)N[C@H]2C(=O)N3CCC[C@H]3C(=O)NCC(=O)N[C@H](C(=O)N[C@@H](C)C(=O)N[C@@H](C)C(=O)N/C(=C\C)C(=O)NCC(=O)N[C@@H]3CSC[C@@H]4NC(=O)[C@H](Cc5ccc(O)cc5)NC(=O)[C@@H](CS/C=C\NC4=O)NC(=O)[C@H](CC(N)=O)NC(=O)[C@H](Cc4ccccc4)NC3=O)CS[C@H]2C)NC(=O)[C@H](CC(C)C)NC1=O [R13A]	-4	9	5	3	1	3	-6	-1	-5	6	7	-3	-29	-4	-37	9	16	3	18	-3	Cerep SafetyScreen 44 % Inhibition ACHE (ACHE): -15%; Cerep SafetyScreen 44 % Inhibition H1 (H1): -17%; Cerep SafetyScreen 44 % Inhibition 5-HT (2A) (5-HT (2A)): -9%; Cerep SafetyScreen 44 % Inhibition V1a (V1a): 9%; Cerep SafetyScreen 44 % Inhibition D1 (D1): -2%
